Experimental data as given in patent US20160296499A1, “Spiroindoline Antiparasitic Derivatives” (ZOETIS SERVICES LLC, priority 2013, published 2016).

By UniProt entry, the sequences of proteins in these tests, tags left out. Residues count along the entry.
UniProt E1BK36, 1-524: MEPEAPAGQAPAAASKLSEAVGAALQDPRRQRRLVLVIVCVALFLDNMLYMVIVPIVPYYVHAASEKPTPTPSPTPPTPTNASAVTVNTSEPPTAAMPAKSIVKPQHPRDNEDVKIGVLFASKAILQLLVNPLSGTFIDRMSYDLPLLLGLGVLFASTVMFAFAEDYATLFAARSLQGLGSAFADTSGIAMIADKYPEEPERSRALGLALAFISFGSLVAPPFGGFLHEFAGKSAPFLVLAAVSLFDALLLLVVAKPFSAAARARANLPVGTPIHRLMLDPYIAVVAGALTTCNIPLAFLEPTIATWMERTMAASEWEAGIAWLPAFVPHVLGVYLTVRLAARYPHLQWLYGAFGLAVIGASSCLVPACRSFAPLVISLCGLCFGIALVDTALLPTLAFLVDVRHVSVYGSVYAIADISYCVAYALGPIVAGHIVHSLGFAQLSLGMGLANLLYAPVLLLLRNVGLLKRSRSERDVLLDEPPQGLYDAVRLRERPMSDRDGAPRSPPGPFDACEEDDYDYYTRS

Biological target: bovine vesicular acetylcholine transporter (VAChT) (Bos taurus, UniProt E1BK36)
Experiment: Radioligand Binding Assay
Settings: read-out: Bovine binding Ki; CHO-K1 membranes with recombinant bovine VAChT, [3H]Compound X6 0.3 nM

O=C(NCc1ccnc(Cl)c1)N1CC2(CCN(Cc3ccc4cc(F)ccc4n3)CC2)c2c1ccc1sncc21
pKi: 5.98

O=C(NCc1ccnc(Cl)c1)N1CC2(CCN(C/C=C/c3ccc(F)cc3)CC2)c2c1ccc1sncc21
pKi: 7.05

O=C(NCc1ccnc(Cl)c1)N1CC2(CCN(C/C=C/c3ccc(C(F)(F)F)cn3)CC2)c2c1ccc1sncc21
pKi: 6.27

pKi: −log10 of the molar value.
